Earlier results on one sequence are cited in EP0906335B1, “EBV TYPE B CTL EPITOPES” (THE COUNCIL OF THE QUEENSLAND INSTITUTE OF MEDICAL RESEARCH, priority 1996, dated 2008).

This data set deals with HLA. The following applies: Table 4, from the cited reference; cited from earlier work.

As for RKCCRAKFKQLLQHYR, the “HLA Restriction” value is reported as “HLA Cw6”.
